From patent publication US20260384460A1, “COMPOUND BASED ON CORYDALMINE STRUCTURE AND USE THEREOF” (published 2026)

Key:
[1] = system: acetic acid-induced writhing model in mice; assay: Analgesia test in acetic acid-induced writhing model (oral gavage); settings: single oral gavage, dose per compound in Table 1, 0.6% acetic acid 2 h after administration, n=5, mean±standard error; for Number of Writhing, 5-15 min: 5-15 min after acetic acid, blank 17 ± 15; for Number of Writhing, 15-30 min: 15-30 min after acetic acid, blank 20 ± 14; for Time to start writhing: blank 241 ± 95; for Number of Writhing, Total: blank 37 ± 26
Method: (§1) 1) The animal mice (CD-1 mice, age: 6-8 weeks, sex: male, body weight: 20-24 g, number: 120, animal supplier: SPF (Beijing) Biotechnology Co., Ltd.) underwent a 7-day quarantine period, during which the routine health examination was conducted by veterinarians. The animals with abnormalities were excluded from the study prior to experimentation.
(§2) The animal mice were housed in a SPF-grade laminar flow clean room with constant temperature and constant humidity at the Pharmaron (Beijing) New Drug Technology Co., Ltd. Animal Center (an AAALAC-accredited facility), with 5 mice per cage. Feeding room was maintained at a temperature of 22±3 °C and a humidity of 40-70%, with a light radiation of 12-hour light/dark cycle. Cages were made from polycarbonate. Autoclaved clean beddings were made from soft corncob and changed twice weekly. Diet and drinking water: Clean-grade rodent diet (purchased from Beijing Keao Xieli Feed Co., Ltd.). The drinking water was autoclaved, and the food was irradiated with cobalt 60 ray. The animals were free to ingest sterile food and drinking water.
Each cage was provided with a cage label, indicating the animal number, sex, line, receipt time, grouping, and start time of experiment. Animal number: Each animal was marked with a unique animal number at its tail.
The animals were randomly divided to groups according to their weight, and the specific groups and administration modes were listed in Table 1 below, wherein [COMPOUND LEFT OUT], an existing drug commonly used for analgesia, was used as positive control in the present disclosure.
Prior to the administration, the mice were fasted for 16 hours. According to Table 1, the administration modes in various groups were as follows: Positive drug [COMPOUND LEFT OUT]: intravenous injection; other drug or blank groups: oral gavage; administration volume: 10 mL/kg; number of administration times: single.
2) All the mice were weighed and recorded in detail before the administration. After the administration, various groups were injected with 0.6% glacial acetic acid, wherein Group 2 was injected 10 min after the administration, and other groups were injected 2 h after the administration. […] The writhing number of mice were taken as the index of pain reaction, evaluating the analgesic effect of the compound. The writhing reaction occurred more frequently within 30 min after the injection of 0.6% glacial acetic acid. The number of “writhing reactions” occurred were observed and recorded within 5-15 min and 15-30 min after the injection of 0.6% glacial acetic acid.
The writhing test results of mice in various groups were represented as “mean±standard error”. The data of various groups were subjected to data statistics using SPSS16.0 software package with the statistical method of One-way ANOVA. The groups were compared to determine if there was a statistical difference therebetween, wherein P<0.05 indicated a statistical difference. The recorded results of the writhing start time of the mice in various groups were shown in FIG. 3, and the writhing test results of the mice in various groups were shown in Table 2.

[2] = system: inflammatory pain model induced by complete Freund's adjuvant in mice; assay: Mechanical pain test of inflammatory pain model induced by complete Freund's adjuvant in mice (mechanical pain threshold, Up-down testing method); settings: A3 8.4 mg/kg oral, n=4
Text: (§3) • 1) The animal mice (C57BL/6J, 8-week-old, male, purchased from Zhejiang Charles River Experimental Animal Technology Co., Ltd.; Certificate Number: 20220617Abzz0619000690; License Number: SCXK (Zhejiang) 2019-0001; Issued by: Zhejiang Charles River Experimental Animal Technology Co., Ltd.; 18-22 g) were adaptively reared for one week after purchase, during which the mice were fed ad libitum; • 2) In the first 3 days of the test, the mice were placed on a metal pain measuring rack to adapt for 40-60 min, during which the experimenter contacted the animals adaptively (contacting the mice for 3-5 min, Day 1 to Day 3) to reduce the stress reaction of the experimental animals to the experimenters; • 3) After the completion of the environmental adaptation (Day 4), the Baseline values of the animals were tested (Up-down testing method), and the animals were randomly divided into 4 groups, including Model Group (Model), Control Group I (Morphine), Control Group II (A10-0, Corydalmine), Test Group (A3) with 4 mice in a group (n=4); • 4) The inflammatory pain model was induced by complete Freund's adjuvant, including the steps of: pipetting 20 μL of the complete Freund's adjuvant (CFA) solution with a sample microinjector, inserting the needle from the toe of one hind paw of the animal, slowly injecting the CFA solution into the subcutaneous position of the palm to form a bulge under the skin, keeping the needle in situ for 20 s, and slowly withdrawing the needle in rotatory manner to avoid any liquid leakage; • 5) The mechanical pain thresholds and the plantar thicknesses of the mice were tested 0.5 h, 2 h, 8 h, and 24 h after the first administration (in Control Group I, morphine was subcutaneously administered; and in other groups, the agents were administered by oral gavage at intervals of 8 h); wherein the dosage was 2 mg/kg in Control Group I (Morphine), 5 mg/kg in Control Group II (A10-0, Corydalmine), and 8.4 mg/kg in Test Group (A3).
The measurement method of mechanical pain (Up-down testing method) includes the following steps: • a. An experimental animal was placed on a mechanical pain metal net rack and stood for 30 min to 60 min. After the animal stopped looking, exploring, and being quiet, the test began. • b. After adaptation, the middle plantaris of hind paw was stimulated with a fiber.
The experimenter placed the Von Frey fiber perpendicular to the plantar surface, applied a sufficient force to slightly bend the fiber relative to the paw for about 6-8 s; • c. The contact should be gentle (no puncture), and the force was slowly applied until the fibers began to bend. • d. […] The first data point after the first inflection point was taken as Reading 1, and the test was stopped after the obtainment of 4 readings. […]

[3] = system: inflammatory pain model induced by complete Freund's adjuvant in mice; assay: Plantar thickness in inflammatory pain model induced by complete Freund's adjuvant in mice; settings: A10-0 5 mg/kg oral, n=4, FIG. 2; for effect of reducing the sole-swelling degree (plantar thickness): 0.5, 2, 8, 24 h after first administration, Morphine 2 mg/kg s.c., A3 8.4 mg/kg oral
Text: as §3

[4] = system: writhing reaction in mice injected with 0.6% glacial acetic acid; assay: Detection of activity: acetic acid writhing in mice, intravenous administration (inhibition rate); settings: i.v., 10 mpk; 0.6% acetic acid 15 min after administration; writhing within 20 min; vs control group without administration
Method: as §1, with “The” for “1) The”
as §2, with “a” for “a SPF-grade laminar flow”, “room,” for “room with constant temperature and constant humidity at the Pharmaron (Beijing) New Drug Technology Co., Ltd. Animal Center (an AAALAC-accredited facility),”, “22±3YC” for “22±3 °C”, “Kleao” for “Keao”, “water. All the mice were weighed and recorded in detail before the administration.” for “water.”
Before the administration, the mice were fasted for 16 h. The administration was conducted by intravenous injection with an administration volume of 10 mL/kg and a dose of 10 mpk. […] The number of “writhing reactions” occurred within 20 min after the injection of 0.6% glacial acetic acid and the number of “writhing reactions” in the control group without administration were observed, and a ratio thereof was calculated. […]

[5] = 0.5, 2, 8, 24 h after first administration, Morphine 2 mg/kg s.c., A10-0 5 mg/kg oral, FIG. 1

| SMILES | Number of Writhing, 5-15 min [1] | Number of Writhing, 15-30 min [1] | Time to start writhing [1] [s] | Number of Writhing, Total [1] | duration of the analgesic effect ([2]; 0.5, 2, 8, 24 h after first administration, Morphine 2 mg/kg s.c., FIG. 1) | analgesic effect on the inflammatory pain model (mechanical pain threshold) [2, 5] | effect of reducing the sole-swelling degree (plantar thickness) [3] | comparison with the positive drug Morphine (analgesic and sole-swelling-reducing effect) ([2]; vs Morphine 2 mg/kg s.c., A10-0 5 mg/kg oral, FIG. 1 and FIG. 2) | duration of the sole-swelling-reducing effect [3] | Inhibition Rate (%) [4] [%] |
| --- | --- | --- | --- | --- | --- | --- | --- | --- | --- | --- |
| CCCCCCCC/C=C\CCCCCCCC(=O)Oc1ccc2c(c1OC)CN1CCc3cc(OC)c(OC)cc3[C@@H]1C2 | 12 ± 10 | 10 ± 10 | 275 ± 66 | 23 ± 19 | – | – | – | – | – | – |
| CCCCCCCCC/C=C/C=C/C=C/C=C/C=C/C=C/C(=O)Oc1ccc2c(c1OC)CN1CCc3cc(OC)c(OC)cc3[C@@H]1C2 | 5 · | 5 ± 3 | 310 ± 210 | 10 · | – | – | – | – | – | – |
| CN1CC[C@]23c4c5ccc(O)c4O[C@H]2[C@@H](O)C=C[C@H]3[C@H]1C5 | – | – | – | – | the effect cannot be maintained for a long term | good analgesic effect | did not have an effect of reducing the sole-swelling degree | – | – | – |
| CCCCCCCCC(=O)Oc1ccc2c(c1OC)CN1CCc3cc(OC)c(OC)cc3[C@@H]1C2 | 15 ± 15 | 13 ± 10 | 493 ± 484 | 28 ± 24 | – | – | – | – | – | – |
| COc1cc2c(cc1OC)[C@@H]1Cc3ccc(O)c(OC)c3CN1CC2 | 4 · | 5 ± 3 | – | 9 · | – | did not have a significant analgesic effect | had an effect of reducing the sole-welling degree | different effects in terms of analgesic effect and sole-swelling-reducing effect | the effect was maintained for a short time | – |
| CCOC(=O)C(CCC(=O)Oc1ccc2c(c1OC)CN1CCc3cc(OC)c(OC)cc3[C@@H]1C2)NC(=O)[C@@H](C)c1ccc(-c2ccccc2)c(F)c1 (stereo partly drawn) | – | – | – | – | – | – | – | – | – | 60.33 |
| COCCOCCOCCOCCOCCOCCOCCOCCOCC(=O)Oc1ccc2c(c1OC)CN1CCc3cc(OC)c(OC)cc3[C@@H]1C2 | 5 · | 3 ± 7 | 294 ± 223 | 8 · | – | – | – | – | – | – |
